Literature values in patent publication EP4509142A1, “FGFR4 AS TARGET IN CANCER TREATMENT” (Ona Therapeutics S.L., priority 2023, dated 2025).

Tested on: HR+/HER2-low BC
Conditions: in less than 10 months; Modi et al., NEJM 2022; cited from earlier work

## trastuzumab deruxtecan
  proportion of patients who progress: 50%
